# Test results from patent US6203776A, “Method for identifying adrenergic receptor antagonists having good tolerability” (University Technology Corporation, priority 1998, dated 2001).
# Test system: human β1 or β2 receptors
# Assay: Inverse agonist activity: inhibition of basal adenylyl cyclase activity (cAMP generation) in Sf9 membranes
# Format: biochemical
# Protocol: Sf9 cells were transfected with a baculovirus expression system coding for human β1 or β2 receptors as described in Chidiac et al., Molec.
# Adenylyl cyclase activity of Sf9 membranes was measured as described in Chidiac et al., Molec. […] The inhibition of basal cAMP generation in this system is a measure of inverse agonism.
smiles,measurement,setting,value
COc1ccccc1OCCNCC(O)COc1cccc2[nH]c3ccccc3c12 (centres unmarked) [carvedilol],"percent reduction in basal adenylyl cyclase (AC) activity, maximal reduction of AC (FIG. 1A)","Sf9 membranes, baculovirus expression system, maximum degree of inhibition",less than 50%
same,rank order of inverse agonist activity (FIG. 1B),concentration 10×Ki for the β2 receptor,metoprolol>propranolol≥carvedilol>xamoterol>bucindolol
